Data on 1 compound can be found in ChEMBL document CHEMBL1152554, “Synthesis and pharmacological evaluation of 6-naltrexamine analogs for alcohol cessation” (Bioorg Med Chem, 2009).

Sequences of proteins named here, by UniProt entry; tags and fusion partners are left off. A change or cut given only in a name is not applied to a line headed by its entry.
UniProt P41146: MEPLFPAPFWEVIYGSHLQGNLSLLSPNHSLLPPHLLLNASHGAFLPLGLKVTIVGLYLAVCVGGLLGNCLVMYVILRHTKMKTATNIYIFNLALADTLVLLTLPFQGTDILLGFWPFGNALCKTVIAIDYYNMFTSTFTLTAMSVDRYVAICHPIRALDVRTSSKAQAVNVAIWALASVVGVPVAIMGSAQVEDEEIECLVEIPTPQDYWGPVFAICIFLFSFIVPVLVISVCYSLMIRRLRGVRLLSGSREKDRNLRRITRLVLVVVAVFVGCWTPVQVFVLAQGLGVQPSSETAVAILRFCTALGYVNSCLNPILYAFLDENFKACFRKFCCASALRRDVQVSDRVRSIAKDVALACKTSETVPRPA

This assay addresses Nociceptin receptor (Homo sapiens, UniProt P41146). The assay can be described thus: Activity at NOP expressed in HEK293 cells assessed as stimulation of [35S]GTPgammaS binding relative to basal level. In kind it is functional, cell-based. In general terms: GTPγS is a poorly hydrolysed GTP analogue; its binding reports G protein activation.

In the case of `CN(C(=O)Cc1ccc(Cl)c(Cl)c1)C1CCCCC1N1CCCC1` (stereo unspecified), the Emax was determined as 0%.

One may read the Emax as the maximal effect, on the per cent scale that the assay sets.
